Earlier results as cited in US10413482B2, “Delamination resistant pharmaceutical glass containers containing active pharmaceutical ingredients” (Corning Incorporated, priority 2011, dated 2019).

System: WISH cells and Vesicular Stomatitis virus
Details: reference standard calibrated against WHO natural interferon beta standard

## Interferon beta-1a: 166 amino acid glycoprotein produced in Chinese Hamster Ovary cells
  specific activity (antiviral activity): approximately 270 million international units (MIU) of antiviral activity per mg
